Molecular target: μ-opioid receptor (MOR) (Homo sapiens, UniProt P35372)
Assay: Radioligand binding at MOR against [3H]DAMGO

Protein sequences, listed by entry. Tags and fused reporters are not part of them.
UniProt P35372, whole entry, species assumed: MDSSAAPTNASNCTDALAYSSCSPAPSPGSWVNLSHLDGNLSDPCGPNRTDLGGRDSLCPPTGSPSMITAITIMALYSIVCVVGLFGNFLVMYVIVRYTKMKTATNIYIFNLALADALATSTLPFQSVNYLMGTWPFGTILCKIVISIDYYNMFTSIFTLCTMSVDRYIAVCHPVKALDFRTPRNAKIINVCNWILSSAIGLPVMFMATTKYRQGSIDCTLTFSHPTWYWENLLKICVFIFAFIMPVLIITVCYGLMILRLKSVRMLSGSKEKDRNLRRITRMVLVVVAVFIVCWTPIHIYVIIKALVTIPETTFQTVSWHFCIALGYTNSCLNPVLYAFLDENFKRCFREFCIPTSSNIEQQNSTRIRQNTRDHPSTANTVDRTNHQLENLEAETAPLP

For COC(=O)[C@@H]1C[C@H](OC(=O)/C=C/c2ccccc2)C(=O)[C@H]2[C@@]1(C)CC[C@H]1C(=O)O[C@H](c3ccoc3)C[C@]21C [5a, 2-O-Cinnamoylsalvinorin B], the “fold increased MOR affinity compared to 4a” value (vs 4a) was 18 fold.
In the case of COC(=O)[C@@H]1C[C@H](OC(=O)/C=C/c2cc(OC)c(OC)c(OC)c2)C(=O)[C@H]2[C@@]1(C)CC[C@H]1C(=O)O[C@H](c3ccoc3)C[C@]21C [5f, 2-O-(3″,4″,5″-Trimethoxycinnamoyl)salvinorin B], the “affinity for MOR (in words)” value is reported as “no appreciable affinity”.

From paper PMC4162805 (European journal of medicinal chemistry, 2014)
